Laboratory results as given in patent EP4620956A1, “PARP1 INHIBITORS” (Zhejiang Yangli Pharmaceutical Technology Co., Ltd., priority 2022, dated 2024).

Columns and labels:
PARP7 = biological target: T1, PARP7 (Homo sapiens, UniProt Q7Z3E1); test: Inhibition of PARP7 enzyme activity (chemiluminescent assay kit); assay type: biochemical; details: ratio relative to the PARP1 enzyme activity
T1 construct: purchased BPS 80527
T1 sequence (Q7Z3E1 1-657): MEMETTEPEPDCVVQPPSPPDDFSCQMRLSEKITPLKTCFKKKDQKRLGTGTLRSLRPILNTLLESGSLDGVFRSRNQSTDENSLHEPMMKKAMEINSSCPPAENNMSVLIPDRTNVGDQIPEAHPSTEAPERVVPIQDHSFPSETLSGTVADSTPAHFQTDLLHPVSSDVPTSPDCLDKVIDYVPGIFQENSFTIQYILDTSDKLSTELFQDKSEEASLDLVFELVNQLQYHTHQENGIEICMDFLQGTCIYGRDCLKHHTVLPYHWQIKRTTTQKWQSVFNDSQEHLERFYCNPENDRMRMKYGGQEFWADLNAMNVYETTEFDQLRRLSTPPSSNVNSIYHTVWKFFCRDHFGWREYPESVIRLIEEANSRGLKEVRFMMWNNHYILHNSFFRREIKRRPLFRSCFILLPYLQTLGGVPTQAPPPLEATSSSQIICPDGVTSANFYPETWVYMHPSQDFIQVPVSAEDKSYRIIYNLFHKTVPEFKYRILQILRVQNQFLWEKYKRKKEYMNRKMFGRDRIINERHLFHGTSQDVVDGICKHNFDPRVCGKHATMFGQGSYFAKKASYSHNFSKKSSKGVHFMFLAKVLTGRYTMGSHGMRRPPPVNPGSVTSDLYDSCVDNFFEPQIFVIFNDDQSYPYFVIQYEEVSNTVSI

PARP11 = biological target: T2, PARP11 (Homo sapiens, UniProt Q9NR21); test: Inhibition of PARP11 enzyme activity (chemiluminescent assay kit); assay type: biochemical; details: ratio relative to the PARP1 enzyme activity
T2 construct: purchased BPS 80511
T2 sequence (Q9NR21 1-338): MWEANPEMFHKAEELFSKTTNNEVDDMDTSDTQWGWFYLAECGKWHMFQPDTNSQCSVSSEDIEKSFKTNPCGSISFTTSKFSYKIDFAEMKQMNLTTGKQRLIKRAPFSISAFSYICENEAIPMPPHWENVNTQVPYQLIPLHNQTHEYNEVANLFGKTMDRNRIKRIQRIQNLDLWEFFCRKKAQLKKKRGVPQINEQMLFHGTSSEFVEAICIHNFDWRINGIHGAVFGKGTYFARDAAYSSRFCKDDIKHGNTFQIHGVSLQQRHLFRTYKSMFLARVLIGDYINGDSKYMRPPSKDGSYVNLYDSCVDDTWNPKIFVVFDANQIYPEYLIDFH

Row | PARP11 multiple vs PARP1 (PARP11) | Compound | PARP7 multiple vs PARP1 (PARP7)
1 |  | CCc1cc2ncc(CN3CCN(c4ccc(C(=O)NC)nc4)CC3)cc2[nH]c1=O [AZD5305, reference compound] | 3,710
2 | 5,280 | O=C(c1cc(Cc2n[nH]c(=O)c3ccccc23)ccc1F)N1CCN(C(=O)C2CC2)CC1 [Olaparib, olaparib] | 
